Assay: in vivo
Details: rat, rats

## COCCOc1c(OC)cc(Cc2cnc(N)nc2N)cc1OC [substance B, 2,4-diamino-5-(3',5'-dimethoxy-4'-methyldioxyethylene-benzyl)-pyrimidine]
  LD50: 1360 mg/kg
